# Source: PMC6089501 (Journal of Medicinal Chemistry, 2018)
# Assay: in vitro
# Conditions: dog, MDCK-MDR1
compound,measurement,value
"C=C[C@H]1C[N@@]2CC[C@H]1C[C@@H]2[C@@H](O)c1ccnc2ccc(OC)cc12 [Quinidine, reference compound]",Papp A→B,4 ×10⁻⁶ cm/s
